Measured values: patent US8957114B2, “Formulations, salts and polymorphs of transnorsertraline and uses thereof” (Sunovion Pharmaceuticals Inc., priority 2009, dated 2015)

Assays:
[1] = Solubility of transnorsertraline salts in aqueous buffer systems (SGF, acetate buffer pH 4.5, SIF; HPLC); type: physicochemical; conditions: for Solubility in Freebase Equivalents mgA/mL: ambient, up to nine days
Description: Saturated solutions with excess solids were prepared in 20 mL clear glass scintillation vials. Simulated gastric fluid (pH 1.0, ˜0.1N HCl, 0.03M NaCl, no enzymes), simulated intestinal fluid (pH 6.8, 0.05M KH2PO4, ˜0.02N NaOH, no enzymes), and acetate buffer (pH 4.5, 0.02M sodium acetate, 0.03M acetic acid) were prepared in accordance with USP28 (USP28 Test Solutions p2855, Volumetric Solutions p2863). […] Solubility was determined using a HPLC method.

[2] = Solubility of transnorsertraline salts in de-ionized water (HPLC); conditions: for Solubility in Freebase Equivalents mgA/mL: de-ionized water, ambient, shaken up to nine days until equilibrium
Description: For each salt, saturated solutions with excess solids in deionized water were prepared in 20 mL clear glass scintillation vials with screw caps. All samples were shaken at 300 rpm at ambient conditions for up to nine days until equilibrium was achieved. Solubility was determined using a HPLC method (Table 5).

[3] = Simulated Gastric Fluid (no enzymes)
[4] = Simulated Intestinal Fluid (pH 6.8, no enzymes)

Substance: Benzoate
- Solubility in Freebase Equivalents mgA/mL ([1]; 0.05M Acetate Buffer (pH 4.5)): 0.79 mgA/mL
- Solubility in Freebase Equivalents mgA/mL [1, 3]: <0.01 mgA/mL
- Solubility in Freebase Equivalents mgA/mL [1, 4]: 0.11 mgA/mL
- pH ([1]; saturated solution in 0.05M Acetate Buffer (pH 4.5)): 4.61
- pH ([1]; saturated solution in Simulated Gastric Fluid): 1.25
- pH ([1]; saturated solution in Simulated Intestinal Fluid): 6.77
- Solubility in Freebase Equivalents mgA/mL [2]: 0.59 mgA/mL
- pH ([2]; saturated solution in de-ionized water): 6.34

Substance: L-tartrate
- Solubility in Freebase Equivalents mgA/mL ([1]; 0.05M Acetate Buffer (pH 4.5)): 0.03 mgA/mL
- Solubility in Freebase Equivalents mgA/mL [1, 3]: <0.01 mgA/mL
- Solubility in Freebase Equivalents mgA/mL [1, 4]: 0.27 mgA/mL
- Solubility in Freebase Equivalents mgA/mL [2]: 0.44 mgA/mL
